Data from patent US6562588B2, “Sialidase and recombinant cell lines” (Genentech, Inc., priority 1993, dated 2003).

Sequences of proteins named here, by UniProt entry; tags and fusion partners are left off. A change or cut given only in a name is not applied to a line headed by its entry.
UniProt Q64393: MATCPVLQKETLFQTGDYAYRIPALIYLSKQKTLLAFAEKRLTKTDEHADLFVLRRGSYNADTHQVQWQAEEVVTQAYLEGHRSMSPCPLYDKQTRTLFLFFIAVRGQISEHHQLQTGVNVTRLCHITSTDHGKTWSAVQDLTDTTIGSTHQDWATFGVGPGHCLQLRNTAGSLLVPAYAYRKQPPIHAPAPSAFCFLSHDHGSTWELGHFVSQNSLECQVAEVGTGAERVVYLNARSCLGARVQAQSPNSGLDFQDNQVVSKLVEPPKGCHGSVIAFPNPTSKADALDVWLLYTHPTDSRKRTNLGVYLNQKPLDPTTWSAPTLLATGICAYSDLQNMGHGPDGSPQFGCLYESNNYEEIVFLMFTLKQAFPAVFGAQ

Target: CHO cell sialidase (Cricetulus griseus, UniProt Q64393)
Assay: biochemical

Row | SMILES | Ki (Ki, CHO cell sialidase (Cytosol ?)) | Ki
1 | CC(=O)N[C@H]1[C@H]([C@H](O)[C@H](O)CN=[N+]=[N-])OC(C(=O)O)=C[C@@H]1O [9-Azido Neu5Ac2en, 5-acetamido-2,6-anhydro-9-azido-3,5,9-trideoxy-D-glycero-D-galacto-non-2-enonic acid] | 45 µM | 
2 | CC(=O)N[C@H]1[C@H]([C@H](O)[C@H](O)CSc2ccc(N=[N+]=[N-])cc2[N+](=O)[O-])OC(C(=O)O)=C[C@@H]1O [9-S-PANP Neu5Ac2en, 9-S-(4′-azido-2′-nitro-phenyl)-5-acetamido-2,6 anhydro-9-thio-2,5,9-trideoxy-D-glycero-D-galacto-non-2-enonic acid] |  | 300 µM

Like-named read-outs stand apart in the source and are kept apart here.
